For one substance, EC50 of dose-dependent killing of Raji cells, effector:target 10:1 and EC50 of killing of Raji cells, fold lower than Blinatumomab (CD19 BiTE) results are on record in US20250354133A1, “SIALIDASE FUSION MOLECULES AND RELATED USES” (The Scripps Research Institute, priority 2022, published 2025).

This test deals with CD19 (human) (UniProt P15391). The experiment in a line: cell-based or functional assay.

Substance “Blinatumomab-sialidase fusion (CD19 BiTE-sialidase) (bispecific antibody)” came in with an EC50 of dose-dependent killing of Raji cells, effector:target 10:1 of 0.8 pM and an EC50 of killing of Raji cells, fold lower than Blinatumomab (CD19 BiTE) of 5 fold lower.
